The text below walks through data of ChEMBL document CHEMBL3632588 (Medchemcomm, 2015).

Common to all, as to type: functional
One assay relates to HeLa. Kind of assay: Antiproliferative activity against human HeLa cells assessed as cell growth at 20 uM after 72 hrs by colorimetry.
The next assay relates to MCF7. In words: Antiproliferative activity against human MCF7 cells assessed as cell growth at 20 uM after 72 hrs by colorimetry.
In another assay the test system is B16F0. Kind of assay: Antiproliferative activity against mouse B16F0 cells assessed as cell growth at 20 uM after 72 hrs by colorimetry.
Another assay concerns LM3. Kind of assay: Antiproliferative activity against mouse LM3 cells assessed as cell growth at 20 uM after 72 hrs by colorimetry.

For `COC(=O)[C@@H]1N2C(=O)C(Br)(Br)[C@H]2S[C@@]1(C)CSc1nnn[nH]1`, the Activity with HeLa was determined as 71%; in the assay on MCF7 it was 80%; in the assay with B16F0, 61%; in the assay on LM3 it was 90%.
`COC(=O)[C@@H]1N2C(=O)[C@H](Br)[C@H]2S[C@@]1(C)CCl`: the Activity with HeLa was determined as 81%; in the assay with MCF7, 90%; with B16F0, 80%; with LM3 it was 69%.
For `COC(=O)[C@@H]1N2C(=O)[C@H](Cl)[C@H]2S[C@@]1(C)CCl` the same measures were 70%, 63%, 81% and 90%.
